Source: patent US20220389400

Biological target: amyloid precursor protein, APP751 isoform, P05067

Row | Protein | APP-cleaving activity (Western blot, sAPPα antibody) | SAS activity (FIG. 7)
1 | SAS^N70Q (protein) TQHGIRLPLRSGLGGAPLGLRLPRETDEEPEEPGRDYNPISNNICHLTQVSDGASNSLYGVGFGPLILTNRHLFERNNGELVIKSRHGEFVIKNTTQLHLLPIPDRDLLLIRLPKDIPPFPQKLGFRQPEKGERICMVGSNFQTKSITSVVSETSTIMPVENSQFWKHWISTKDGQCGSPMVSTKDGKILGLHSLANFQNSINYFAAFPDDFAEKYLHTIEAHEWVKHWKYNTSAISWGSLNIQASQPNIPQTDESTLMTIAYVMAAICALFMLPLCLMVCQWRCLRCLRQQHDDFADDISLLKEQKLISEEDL | showed stronger activity than the original SAS | 
2 | SAS^d20 (protein) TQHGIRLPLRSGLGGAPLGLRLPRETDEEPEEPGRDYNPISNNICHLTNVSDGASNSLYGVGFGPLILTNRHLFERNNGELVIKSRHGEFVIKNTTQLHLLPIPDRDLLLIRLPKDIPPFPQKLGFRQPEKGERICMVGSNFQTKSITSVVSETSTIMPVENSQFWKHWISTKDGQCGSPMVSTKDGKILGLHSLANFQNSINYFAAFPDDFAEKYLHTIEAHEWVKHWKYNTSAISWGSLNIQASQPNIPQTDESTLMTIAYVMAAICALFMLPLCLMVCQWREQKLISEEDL |  | among the various versions of SAS, the SAS^d20 activity was the most outstanding
